Assay outcomes (PubChem)
The list is not random: actives were taken first. Their share in the collection is about 3.7%.
A549 viability – kills or reduces viability of A549 cells in Nrf2 counter-screen; A549 ARE-Fluc cells, CellTiter-Fluor viability, 18-24 h; Potency, µM (doses to about 46 µM), for the others: at the highest dose activity change, negative = cytotoxicity, most hits filed as inhibitors; 390,000 compounds, 0.16% hits; AID 504648; note: potency is the fitted concentration of half-maximal effect; % is set by controls: 0 for no effect and ±100 for the full control effect
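A549 ARE_Fluc cells in 5% FBS OPTI-MEM were exposed to compounds in concentration-response for 18-24 h at 37 deg C. Viability was read by CellTiter-Fluor fluorescence (Ex 405/Em 525) after 30 min, before the luciferase read.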
ClpP mod – qHTS Assay for Activators of ClpP. 340,000 compounds, 1.9% hits. Potency, µM (top dose mostly 57.5 µM), without a hit: top-dose activity change, negative = active. purified B. subtilis ClpP, FRET peptide cleavage, 20 min. AID 651965, 2013; active = well fitted falling curve with a large enough effect; inconclusive = small, poorly fitted or top-dose-only effect; inactive = no such curve, though single readings can be large or run the other way; note: potency is the fitted concentration of half-maximal effect; the source files actives as falling curves though it sought activators and does not explain the sign; nearly all actives have a fitted effect of over 65% in size
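ClpP 10 microg/mL final, pH 8 Tris/KCl buffer with BSA, glycerol, Tween-20; compound pinned in; FRET-FV substrate; RT 20 min; Ex320/Em430; ΔFRET vs ADEP 5.8 microM, DMSO, no enzyme.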
Nrf2 activator – Nrf2 pathway activation; Potency, µM (titrated, usually from 46.1 µM), for inactives: at the top dose activation, most hits filed as activators; 410,000 compounds, 0.31% hits; AREc32 ARE-luciferase reporter (MCF7-derived line), luminescence, 24 h; note: potency is the fitted concentration of half-maximal effect; % of control where 0% means no effect; nearly all actives have a fitted effect of over 65% in size
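Reporter line AREc32 (ARE-Fluc), seeded overnight in OPTI-MEM with 5% FBS; compound pin-transferred, 24 hr at 37 deg C, 5% CO2; luminescent read-out.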
TCR activator – activators of T cell receptors; primary human leukocytes, anti-CD3, IL-2 HTRF, 48 h; Potency, µM (titrated, usually from 9.22 µM), inactives show at the highest dose activation of IL-2 secretion, most hits filed as activators; 330,000 tested, under 10 active; AID 504894; note: % of control where 0% means no effect
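Readout: HTRF IL-2, Eu-cryptate/d2 antibody pair, 320nm excitation, 665nm emission. Stimulus: a-CD3 beads, no co-stimulation. Cells: primary human leukocytes. Exposure: 48 hr with compound.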
Nrf2 block – Nrf2 pathway inhibition. 360,000 compounds, 2.1% hits. Potency, µM (highest dose often 46 µM), for inactives: top-dose activity change, negative = inhibition, hits mostly inhibitors. A549 ARE-Fluc reporter, luciferase luminescence, 18-24 h; note: potency is the fitted concentration of half-maximal effect; % is set by controls: 0 for no effect and ±100 for the full control effect; nearly all actives have a fitted effect of over 60% in size
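Concentration-response testing used A549 ARE_Fluc cells at 5000 cells/well. Following an 18-24 h compound incubation, viability was read by fluorescence (Ex 405/Em 525) and luciferase output by luminescence.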
miR-21 reporter – raises the signal of a miR-21 reporter | Potency, µM (highest dose often 38.3 µM), without a hit: at the top dose reporter change, positive = more light | HeLa miR-21 FLuc reporter, luciferase, 48 h | 340,000 tested, under 10 active; active = well fitted rising curve with a large enough effect; inconclusive = small, poorly fitted or top-dose-only effect; inactive = no such curve, though single readings can be large or run the other way;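 further: % of control where 0% means no effect; miR-21 action dims this reporter so a rising signal means less miR-21 action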
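Compounds were titrated across several concentrations (up to approximately 40 uM) and incubated 48 hours with HeLa miR-21-FLuc reporter cells (miR-21 target sequence downstream of FLuc, endogenous miR-21). Readout was firefly luciferase luminescence after lytic detection reagent.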
Numbers without * were called inactive; ? = inconclusive; . = no result; [ ] = remark or other dose. Unless noted, calls come from the whole dose curve; as a rule, active = well fitted curve in the direction sought with a large enough effect; inconclusive = small, poorly fitted or top-dose-only effect, or another doubt; inactive = no such curve, though single readings can be large; an effect the other way counts as inactive or inconclusive.

SMILES | A549 viability | ClpP mod | Nrf2 activator | TCR activator | Nrf2 block | miR-21 reporter
Cc1cccc(NC(=O)Cn2c(/C=C/c3ccccc3)nc3ccccc32)c1 | -3% | 32µM* | 3% | 2%[46.1 µM] | ? | -68%
Cc1ccccc1OCC(=O)Nc1cc(C)c(O)c(-c2nc3ccccc3o2)c1 | . | 2% | . | . | . | .
CC1CCN(c2ccc(-c3cccc(NS(=O)(=O)c4ccc(Cl)s4)c3)nn2)CC1 | -3% | -7% | 1% | . | . | -5%
CN1CCN(c2sc(S(C)(=O)=O)nc2S(=O)(=O)c2ccc(Cl)cc2)CC1 | -5% | 0% | ? | -61% | ? | 2%
Cc1c(C(=O)Nc2ccccc2)sc2nc(-c3cc4cc(Cl)ccc4oc3=O)[nH]c(=O)c12 | 2% | -5% | 1% | . | ? | -31%
C=CCOc1cccn2c(N(C)C(=O)c3ccccc3F)c(CC)nc12 | . | -1% | 0% | . | . | .
CC(=O)Oc1ccc2ccccc2c1C(NC(=O)Cc1ccccc1)c1ccc(Cl)cc1 (stereo unspecified) | ? | 0% | 2% | 4% | 21µM* | 23%
CCC(=O)N1c2ccccc2CC1C(=O)NCc1ccc(OC(C)C)cc1 (stereo unspecified) | 1% | 1% | 0% | . | . | 0%
S=c1ncc2n[nH]nc2[nH]1 | . | 2% | . | . | . | .
Cc1ccc(C)c(N=Cc2c(O)c3ccccc3oc2=O)c1 | -12% | 0% | ? | . | -15% | -2%
COc1ccccc1Cn1c(C2CC(=O)N(c3ccccc3OC)C2)nc2ccccc21 (stereo unspecified) | -5% | -6% | 4% | . | 10µM* | 27%
CCOC(=O)Cn1c(-c2ccc(Cl)nc2)nc2ccccc21 | 19% | 10µM* | 0% | 3% | . | -2%
CCc1ccccc1N1CC(c2nc3ccccc3n2CCCCOc2ccccc2OC)CC1=O (stereo unspecified) | ? | -2% | 5% | . | ? | ?
CCOC(=O)Cn1c(C2CC(=O)N(c3ccc(C)cc3)C2)nc2ccccc21 (stereo unspecified) | -13% | 1% | 0% | . | 21µM* | 23%
CCc1ccc(N2CC(c3nc4ccccc4n3Cc3ccccc3C)CC2=O)cc1 (stereo unspecified) | -7% | -9% | 1% | . | 15µM* | 11%
CCOc1ccc(N2CC(c3nc4ccccc4n3Cc3cccc(C)c3)CC2=O)cc1 (stereo unspecified) | -11% | -3% | 7% | . | ? | 6%
O=S1(=O)N=C(Oc2cccc(-c3ccccc3)c2)c2ccccc21 | 1% | . | . | . | 25% | .
COc1ccc(-c2oc3c4c2C(=O)OCCOC4CCC3)cc1 (stereo unspecified) | . | 5% | 0% | . | . | .
CC(CCc1ccccc1)NC(=O)COC(=O)c1cccc2ccccc12 (stereo unspecified) | -1% | 25µM* | -1% | -31%[46.1 µM] | 2% | -4%
CC(CCc1ccccc1)NC(=O)COC(=O)c1ccccc1Br (stereo unspecified) | 3% | 0% | 0% | 4% | 9% | -18%
CC(CCc1ccccc1)NC(=O)c1ccc(C(=O)NC(C)CCc2ccccc2)cc1 (stereo unspecified) | ? | 0% | 0% | -5% | 12µM* | 7%
CC(C)C[C@H]1CN([C@@H](CC(C)C)CN2CCCC2CN2C(=S)NC[C@@H]2Cc2ccccc2)C(=S)N1CC1CCCCC1 (stereo partly specified) | . | 1% | 0% | . | . | .
CC(=O)c1cccc(NC(=O)Cn2c(=O)oc3cc(S(=O)(=O)NCc4ccccc4)ccc32)c1 | 9% | 2% | 1% | . | . | -25%
Cc1cc(=O)n2[nH]c(-c3ccc(F)cc3)cc2n1 | -7% | 16µM* | 3% | 8% | 0% | -39%
Cc1cc(=O)n2[nH]c(-c3ccc(Cl)cc3)cc2n1 | 6% | 28µM* | 3% | -4% | ? | -49%
Next section:
SMILES | A549 viability | ClpP mod | Nrf2 activator | TCR activator | Nrf2 block | miR-21 reporter
Cc1cc(=O)n2[nH]c(C)c(-c3ccc(Cl)cc3)c2n1 | -14% | ? | -1% | -3% | ? | -2%
Cc1cccc(C)c1NC(=O)CN1C(=O)S/C(=C\c2cccn2-c2cccc(C(=O)O)c2)C1=O | -19% | 28µM* | 0% | -14% | 9% | -3%
CCc1ccc(NC(=O)CSc2nc(=O)n(CCCN3CCOCC3)c3c2CCCC3)cc1 | -16% | -3% | 0% | -4% | -4% | .
O=C(CSc1nc2ccccc2c(=O)n1CCCN1CCOCC1)Nc1ccc(F)c(Cl)c1 | -27% | -2% | 0% | -498% | -24% | .
CCOC(=O)c1ccc(NC(=O)CSc2nc(=O)n(CCN3CCOCC3)c3c2CCC3)cc1 | 0% | -2% | 4% | 8% | 18µM* | .
O=C(CSc1nc2ccccc2c(=O)n1CCCN1CCOCC1)Nc1cccc(S(=O)(=O)N2CCCCCC2)c1 | ? | 18µM* | 2% | -1%[46.1 µM] | 23µM* | 28%
CC(=O)Nc1cccc(NC(=O)CSc2nc(=O)n(CCCN3CCOCC3)c3c2CCC3)c1 | -10% | 28µM* | 0% | 5% | ? | .
Cc1ccc(NC(=O)CSc2nc(=O)n(CCCN3CCOCC3)c3c2CCCC3)cc1F | 2% | 32µM* | 2% | -178% | -9% | .
O=C(Nc1cccc(C(=O)O)c1)/C(=C\c1ccc2c(c1)OCO2)NC(=O)c1ccccc1Cl | 12% | -6% | 0% | -3% | 10% | 7%
CCn1c2ccccc2c2cc(NC(=O)c3ccco3)ccc21 | -18% | -4% | 2% | -1% | 21µM* | -34%
CCn1c(=N)n(CC(=O)c2ccco2)c2ccccc21 | -26% | -5% | 10µM* | -30% | -19% | 11%
CCn1c2ccccc2c2cc(NC(=O)CSc3nnc(C4CC4)n3Cc3ccco3)ccc21 | -12% | -8% | 4% | 0% | 18µM* | 3%
CCCCn1c(=N)n(CC(=O)c2ccco2)c2ccccc21 | 2% | -1% | 13% | . | -26% | 0%
Cc1ccc2c(c1)c1c(c(=O)n(Cc3ccccc3)c(=O)n1CC(=O)Nc1ccccc1C)n2C | 14% | ? | 0% | . | ? | 2%
COC(=O)c1cc(=O)n(Cc2ccco2)c(=Nc2ccc(F)c(Cl)c2)s1 | ? | 1% | -5% | -9% | 26µM* | ?
O=C(NCc1ccc(F)cc1)c1ccc(S(=O)(=O)Nc2cccc(C(F)(F)F)c2)cc1 | -5% | 14µM* | 0% | -2%[46.1 µM] | 23µM* | 10%

Part of the list above in order of molecular weight, highest first:
SMILES | A549 viability | ClpP mod | Nrf2 activator | TCR activator | Nrf2 block | miR-21 reporter
O=C(CSc1nc2ccccc2c(=O)n1CCCN1CCOCC1)Nc1ccc(F)c(Cl)c1 | -27% | -2% | 0% | -498% | -24% | .
CCOC(=O)c1ccc(NC(=O)CSc2nc(=O)n(CCN3CCOCC3)c3c2CCC3)cc1 | 0% | -2% | 4% | 8% | 18µM* | .
Cc1cccc(C)c1NC(=O)CN1C(=O)S/C(=C\c2cccn2-c2cccc(C(=O)O)c2)C1=O | -19% | 28µM* | 0% | -14% | 9% | -3%
CCc1ccc(NC(=O)CSc2nc(=O)n(CCCN3CCOCC3)c3c2CCCC3)cc1 | -16% | -3% | 0% | -4% | -4% | .
Cc1ccc2c(c1)c1c(c(=O)n(Cc3ccccc3)c(=O)n1CC(=O)Nc1ccccc1C)n2C | 14% | ? | 0% | . | ? | 2%
O=C(NCc1ccc(F)cc1)c1ccc(S(=O)(=O)Nc2cccc(C(F)(F)F)c2)cc1 | -5% | 14µM* | 0% | -2%[46.1 µM] | 23µM* | 10%
